Assay outcomes from PubChem.
Yeast UUG start: yeast start codon fidelity modulation; activity score, % at 18.7 µM; actives 0.13% (n = 350,000); S. cerevisiae UUG-firefly luciferase reporter, luminescence/redox ratio; AID 602363;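 active means replicate mean at a twofold rise or more, about +100% in these data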;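 further: firefly luciferase made from a UUG start codon reports start codon fidelity; reporter light over untreated wells divided by growth signal over untreated wells; some hits fall short of that in this replicate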
miR122 inh: blocks miR-122 activity in Huh7 sensor cells; Huh7 miR-122 Renilla luciferase sensor, 48 h; neutral wells = 0, positive control = 100; activation (reporter increase), % at 12.5 µM; 340,000 compounds, 0.3% hits; AID 602342;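 active = mean replicate activation score at least 90 and every replicate individually at or above 90; inconclusive = only one of the two criteria met; inactive = neither criterion met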;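 note: higher luciferase means less miR-122 activity so hits act as miR-122 inhibitors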
PGC1a acetyl inh: lowers PGC1a acetylation signal in U2OS cells; AlphaScreen anti-acetyl-lysine; with virally co-expressed GCN5 acetyltransferase; inhibition, % at 15.6 µM; 350,000 compounds, 0.17% hits;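 active = every replicate shows inhibition of at least 40%; inconclusive = mean inhibition at least 40% but some replicate below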;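 note: 0% = neutral control wells and 100% = positive control wells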
MITF TRPM1 HTS: increases MITF-driven TRPM1 promoter luciferase signal | SK-MEL-5 TRPM1-promoter luciferase, 24 h; % of positive control, neutral wells = 0 | activation, % at 12.5 µM | 300,000 compounds, 0.75% hits;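 active = mean activation of at least 80% with every replicate also reaching 80%; inconclusive = mean reaches 80% but some replicate falls short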;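 note: 0% = neutral control wells and 100% = parthenolide positive control wells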
Wnt bcat act: activators of Wnt/beta-catenin signaling | AID 743398 | activation, % at 9.35 µM | 300,000 compounds, 1.2% hits | Wnt/beta-catenin reporter cell assay, activator, plate reader; in the data active = activation above about 30%, passing the limit was not always enough; inconclusive = no clear call, values can overlap the other calls;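 note: 0% = neutral control wells and 100% = positive control wells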
TRPM1 prom inh: inhibitors of MITF-driven TRPM1 promoter in melanoma cells. 330,000 compounds, 0.83% hits. inhibition, % at 12.5 µM. SK-MEL-5 TRPM1 promoter luciferase, 24 h. AID 488899;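 active = mean inhibition across replicates of 60% or more, whatever share of single replicates reaches that level; inconclusive = some that reach 60%, reason not given; inactive = mean inhibition across replicates below 60%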
* hit, by the source's call; ? = inconclusive; . = no result; [ ] = another dose, or the depositor's remark. Rows were chosen to be rich in hits. Some 2.1% of all compounds tested hit in one or more screens of this group.

Keys: A = Yeast UUG start; B = miR122 inh; C = PGC1a acetyl inh; D = MITF TRPM1 HTS; E = Wnt bcat act; F = TRPM1 prom inh
SMILES: C[C@H]1CN([C@@H](C)CO)C(=O)c2cc(C#CC(C)(C)O)cnc2O[C@H]1CN(C)C(=O)c1ccccc1F
  A = 13 | B = -2[16.7 µM] | C = 0 | D = . | E = . | F = .
SMILES: Cc1cccc(N/C=C/C(=O)c2ccc(Cl)cc2)c1
  A = -9 | B = 2 | C = 3 | D = 72 | E = 49* | F = -69
SMILES: O=C(C[C@H]1C=C[C@@H](NC(=O)C2CCC2)[C@H](CO)O1)NCCCN1CCOCC1
  A = -16 | B = 1[16.7 µM] | C = 8 | D = . | E = . | F = .
SMILES: CCN1CCN(C(=O)c2cc(COc3ccc(C(C)=O)cc3OC)on2)CC1
  A = -8 | B = -4 | C = -12 | D = 75 | E = 38* | F = -73
SMILES: CCN1CCC2(CCN(C(=O)c3cc(COc4cc(C)ccc4C)on3)C2)C1 (stereo not given)
  A = -7 | B = -2 | C = 4 | D = -4 | E = 2 | F = 5
SMILES: COc1cc(C)ccc1OCc1cc(C(=O)N2CCCCCCC2)no1
  A = -2 | B = . | C = . | D = 63 | E = 20 | F = -62
SMILES: COc1cccc(OCc2cc(C(=O)N3CCN(c4ccccc4O)CC3)no2)c1
  A = -2 | B = -7 | C = 14 | D = 97* | E = 26 | F = -92
SMILES: COc1cccc(OCc2cc(C(=O)N3CCN(C(C)=O)CC3)no2)c1
  A = -7 | B = -2 | C = -10 | D = 64 | E = 0 | F = -76
SMILES: Cc1ccc(C)c(OCc2cc(C(=O)N3CC[C@H](O)C3)no2)c1
  A = -10 | B = 6 | C = -4 | D = 132* | E = 37* | F = -135
SMILES: COc1cccc(OCc2cc(C(=O)N3CCN(c4ccccc4OC)CC3)no2)c1
  A = -11 | B = -6 | C = 7 | D = 83* | E = 37* | F = -83
SMILES: COCC(=O)Nc1ccc2c(c1)[C@H]1C[C@H](CC(=O)NCc3cc(F)ccc3F)O[C@H](CO)[C@H]1O2
  A = 3 | B = 1[16.7 µM] | C = -3 | D = . | E = . | F = .
SMILES: Cc1ccc(OCc2cc(C(=O)N(CCO)Cc3cccs3)no2)cc1C
  A = 11 | B = 4 | C = . | D = 86* | E = 27 | F = -82
SMILES: Cc1ccc(OCc2cc(C(=O)N3CCN(c4ccccc4)CC3)no2)cc1C
  A = -11 | B = -9 | C = 0 | D = 83* | E = 36* | F = -82
SMILES: C[C@H](CO)N1C[C@H](C)[C@@H](CN(C)S(=O)(=O)c2cn(C)cn2)OCCCC[C@H](C)Oc2ccc(NS(C)(=O)=O)cc2C1=O
  A = 15 | B = 7[16.7 µM] | C = 14 | D = . | E = . | F = .
SMILES: COc1ccc2c(c1)c(/C=N/Nc1nc3ccccc3[nH]1)c(C)n2C
  A = -26 | B = 11 | C = . | D = . | E = 57* | F = 4
SMILES: COc1ccc(N=C2C(=S)N(c3ccc(OC)cc3)C(=NS(=O)(=O)c3ccccc3)N2c2ccccc2)cc1
  A = . | B = 2 | C = 1 | D = 9 | E = 68* | F = -14
SMILES: N=C1N(c2ccccc2)C(=S)C(=Nc2ccccc2)N1c1ccccc1
  A = . | B = 11 | C = 9 | D = -46 | E = -3 | F = 47
SMILES: CCC(=O)Nc1ccc2c(c1)C(=O)N(C)[C@@H]1CC[C@@H](CC(=O)NCC3CCCCC3)O[C@H]1CO2
  A = 17 | B = -3[16.7 µM] | C = -8 | D = . | E = . | F = .
SMILES: CCOc1ccc(-c2noc(-c3csc([C@@H]4C[C@H](O)[C@@H](CO)O4)n3)n2)cc1
  A = 12 | B = 2 | C = 4 | D = . | E = -1 | F = .
SMILES: OC[C@H]1O[C@@H](c2nc(-c3nc(-c4ccc(F)cc4)no3)cs2)[C@H](O)[C@@H]1O
  A = -28 | B = -2 | C = -19 | D = . | E = 61* | F = .
SMILES: Clc1ccc(-c2cn3cc(Cl)ccc3n2)cc1
  A = . | B = . | C = . | D = 9 | E = 21 | F = -7
SMILES: Clc1ccc(-c2cn3c(n2)CCC3)cc1
  A = -11 | B = -11 | C = 10 | D = 92* | E = . | F = -90
SMILES: CCOC(=O)c1oc2c(c1C)C(=O)CCC2
  A = 0 | B = 1 | C = 5 | D = -8 | E = 1 | F = 14
SMILES: CCOC(=O)c1oc2c(c1C)/C(=N/O)CCC2
  A = 1 | B = -7 | C = -8 | D = 70 | E = 57* | F = -54
SMILES: C[C@@H]1CN([C@@H](C)CO)C(=O)c2cccc(NS(=O)(=O)c3cn(C)cn3)c2O[C@H]1CN(C)C(=O)Nc1ccc(F)cc1
  A = 1 | B = 8[16.7 µM] | C = -2 | D = . | E = . | F = .

3 of the compounds above, with values ahead of the structure.
Yeast UUG start	miR122 inh	PGC1a acetyl inh	MITF TRPM1 HTS	Wnt bcat act	TRPM1 prom inh	SMILES
-11	-9	0	83*	36*	-82	Cc1ccc(OCc2cc(C(=O)N3CCN(c4ccccc4)CC3)no2)cc1C
15	7[16.7 µM]	14	.	.	.	C[C@H](CO)N1C[C@H](C)[C@@H](CN(C)S(=O)(=O)c2cn(C)cn2)OCCCC[C@H](C)Oc2ccc(NS(C)(=O)=O)cc2C1=O
-26	11	.	.	57*	4	COc1ccc2c(c1)c(/C=N/Nc1nc3ccccc3[nH]1)c(C)n2C

Carrying on.
Keys: A = Yeast UUG start; B = miR122 inh; C = PGC1a acetyl inh; D = MITF TRPM1 HTS; E = Wnt bcat act; F = TRPM1 prom inh
SMILES: Cc1ccc(C(CNS(=O)(=O)c2ccc(Br)cc2)N2CCN(C)CC2)cc1 (stereo not given)
  A = 15 | B = . | C = . | D = -77 | E = -3 | F = 80*
SMILES: CCC1CCCCN1C(=O)c1cc(-c2ccc(Cl)c(Cl)c2)on1 (stereo not given)
  A = -16 | B = -3 | C = -9 | D = 42 | E = . | F = -59
SMILES: CC1CCN(C(=O)c2cc(-c3ccc4c(c3)OCO4)on2)CC1
  A = -34 | B = . | C = . | D = ? | E = 24 | F = -87
SMILES: CC1CCCCN1C(=O)c1cc(-c2ccc3c(c2)OCO3)on1 (stereo not given)
  A = -13 | B = . | C = . | D = 139* | E = 36* | F = -135
SMILES: CC1CCCCN1C(=O)c1cc(-c2ccc(Cl)c(Cl)c2)on1 (stereo not given)
  A = -11 | B = -8 | C = 8 | D = 109* | E = . | F = -106
SMILES: C[C@@H]1CCCCO[C@H](CN(C)S(=O)(=O)c2cn(C)cn2)[C@H](C)CN([C@H](C)CO)C(=O)c2cc(NC(=O)CCCN(C)C)ccc2O1
  A = -20 | B = 1[16.7 µM] | C = -10 | D = . | E = . | F = .
SMILES: Cc1nc2ccccc2n1-c1nc(-c2ccco2)cc(C(F)(F)F)n1
  A = -15 | B = -2 | C = -10 | D = -75 | E = . | F = 76*
SMILES: FC(F)(F)c1cc(-c2ccco2)nc(-n2cnc3ccccc32)n1
  A = -11 | B = -6 | C = 8 | D = -4 | E = . | F = 6
SMILES: COc1cccc(N/N=C/c2cccc(Br)c2O)c1
  A = -17 | B = 0 | C = 10 | D = 60 | E = 35* | F = -67
SMILES: COc1cccc(/C=N/Nc2cc(Cl)nc(C)n2)c1O
  A = . | B = 2 | C = -13 | D = 52 | E = 1 | F = -48
SMILES: COc1ccc(/C=N/Nc2ccc([N+](=O)[O-])cc2)cc1O
  A = -16 | B = . | C = -6 | D = 104* | E = 33* | F = -103
SMILES: COc1cccc(/C=N/Nc2c(Cl)cncc2Cl)c1O
  A = -8 | B = 1 | C = -9 | D = 113* | E = 12 | F = .
SMILES: COc1cccc(/C=N/Nc2ccc([N+](=O)[O-])cc2)c1O
  A = -15 | B = . | C = . | D = 104* | E = 40* | F = -97
SMILES: Cc1ccc(NC(=O)C(=O)c2c[nH]c3ccccc23)cc1
  A = -9 | B = . | C = . | D = . | E = 64* | F = -69
SMILES: COC(=O)c1c(C)oc(C)c1S(=O)(=O)NCC1CC1
  A = -7 | B = 97* | C = -1 | D = 0 | E = -1 | F = 1
SMILES: C[C@@H]1CN([C@H](C)CO)C(=O)c2cccc(NC(=O)Nc3ccc(F)cc3)c2O[C@@H]1CN(C)S(C)(=O)=O
  A = 4 | B = -7[16.7 µM] | C = 16 | D = . | E = . | F = .
SMILES: N#C[C@@H]1[C@@H](c2ccc(C#Cc3cccnc3)cc2)[C@@H](CO)N1C(=O)C1CCCC1
  A = . | B = . | C = 12 | D = . | E = . | F = .
SMILES: CC=Cc1ccc2n(c1=O)C[C@@H]1[C@@H](CO)[C@H](C(=O)Nc3nccs3)N(Cc3ccccc3F)[C@H]21 (mixture of isomers)
  A = . | B = 8[16.7 µM] | C = . | D = . | E = . | F = .
SMILES: COc1ccccc1N(Cc1ccccc1)S(=O)(=O)c1cccc(C(=O)NC2CC(C)(C)NC(C)(C)C2)c1
  A = . | B = . | C = . | D = -2 | E = -5 | F = 3
SMILES: CC1(C)CC(NC(=O)c2ccc(Cl)c(S(=O)(=O)N(Cc3ccccc3)c3ccccc3)c2)CC(C)(C)N1
  A = 13 | B = -14 | C = 0 | D = -91 | E = -21 | F = 92*
SMILES: COc1cccc(C2(O)CC(C(F)(F)F)=NN2C(=O)c2ccccn2)c1 (stereo not given)
  A = . | B = 0 | C = -2 | D = 36 | E = 45* | F = -37
SMILES: Cc1cc2nc(-c3ccc(SCC(=O)Nc4ccc(S(=O)(=O)N5CCCC5)cc4)nc3)[nH]c2cc1C
  A = -18 | B = 7 | C = . | D = 27 | E = 47* | F = -28
